Assays:
[1] = biological target: FAM-labelled APE1NΔ61 (human APE1 without 61 N-terminal amino acid residues) (human) (UniProt P27695); test: FRET or BRET; 40 nM FAM-labelled APE1 form with TMR-labelled partner in the presence of 400 nM incised AP-DNA (AP-DNA inc); binding buffer with 10 mM EDTA; change of E against no DNA
[2] = biological target: FAM-labelled APE1NΔ35 (human APE1 without 35 N-terminal amino acid residues) (human) (UniProt P27695); test: as above
[3] = biological target: FAM-labelled APE1NΔ61 (human APE1 without 61 N-terminal amino acid residues) (human) (UniProt P27695); test: FRET or BRET; 40 nM FAM-labelled APE1 form (donor) with TMR-labelled or unlabelled partner (acceptor), no DNA; E = 1 - Fda/Fd; 50 mM HEPES pH 8.0, 100 mM NaCl, 4 mM DTT
[4] = biological target: FAM-labelled APE1NΔ35 (human APE1 without 35 N-terminal amino acid residues) (human) (UniProt P27695); test: as above
[5] = biological target: FAM-labelled APE1NΔ61 (human APE1 without 61 N-terminal amino acid residues) (human) (UniProt P27695); test: FRET or BRET; 40 nM FAM-labelled APE1 form with TMR-labelled partner in the presence of 400 nM AP-DNA; binding buffer with 10 mM EDTA; change of E against no DNA
[6] = biological target: FAM-labelled APE1NΔ35 (human APE1 without 35 N-terminal amino acid residues) (human) (UniProt P27695); test: as above
[7] = biological target: FAM-labelled APE1NΔ61 (human APE1 without 61 N-terminal amino acid residues) (human) (UniProt P27695); test: FRET or BRET; 40 nM FAM-labelled APE1 form with TMR-labelled partner in the presence of 400 nM gap-DNA; binding buffer with 10 mM EDTA; change of E against no DNA
[8] = biological target: FAM-labelled APE1NΔ61 (human APE1 without 61 N-terminal amino acid residues) (human) (UniProt P27695); test: other fluorescence titration; 40 nM FAM-labelled APE1 form premixed with 400 nM incised AP-DNA (AP-DNA inc), titrated with unlabelled partner; binding buffer with 10 mM EDTA; apparent constants (EC50)
[9] = biological target: FAM-labelled APE1NΔ35 (human APE1 without 35 N-terminal amino acid residues) (human) (UniProt P27695); test: as above
[10] = biological target: FAM-labelled APE1NΔ61 (human APE1 without 61 N-terminal amino acid residues) (human) (UniProt P27695); test: other fluorescence titration; 40 nM FAM-labelled APE1 form titrated with unlabelled partner, no DNA; 50 mM HEPES pH 8.0, 100 mM NaCl, 4 mM DTT; excitation 482 nm, emission 530 nm; apparent constants (EC50, four-parameter fit)
[11] = biological target: FAM-labelled APE1NΔ35 (human APE1 without 35 N-terminal amino acid residues) (human) (UniProt P27695); test: as above
[12] = biological target: FAM-labelled APE1NΔ61 (human APE1 without 61 N-terminal amino acid residues) (human) (UniProt P27695); test: other fluorescence titration; 40 nM FAM-labelled APE1 form premixed with 400 nM gap-DNA, titrated with unlabelled partner; binding buffer with 10 mM EDTA; apparent constants (EC50)
[13] = biological target: FAM-labelled APE1NΔ61 (human APE1 without 61 N-terminal amino acid residues) (human) (UniProt P27695); test: other fluorescence titration; 40 nM FAM-labelled APE1 form premixed with 400 nM AP-DNA, titrated with unlabelled partner; binding buffer with 10 mM EDTA; apparent constants (EC50)
[14] = biological target: FAM-labelled APE1NΔ35 (human APE1 without 35 N-terminal amino acid residues) (human) (UniProt P27695); test: as above

Row | change in FRET efficiency E with AP-DNA inc [1] | change in FRET efficiency E with AP-DNA inc [2] | FRET efficiency E [3] | FRET efficiency E [4] | change in FRET efficiency E with AP-DNA [5] | change in FRET efficiency E with AP-DNA [6] | change in FRET efficiency E with gap-DNA [7] | EC50 [8] [µM] | EC50 [9] [µM] | EC50 [10] [µM] | EC50 [11] [µM] | EC50 [12] [µM] | EC50 [13] [µM] | EC50 [14] [µM] | Substance
1 | -0.09 | -0.08 | 0.22 | 0.16 | -0.08 | -0.08 | -0.07 |  |  |  |  |  |  |  | TMR-labelled DNA polymerase β (rat) (from UniProt P06766 1-335) (enzyme)
2 |  |  |  |  |  |  |  | 0.13 | 0.11 | 0.12 | 0.097 | 0.14 | 0.11 | 0.091 | DNA polymerase β (rat) (from UniProt P06766 1-335) (enzyme)

Source: article PMC7247576
